Screening results as filed in PubChem BioAssay.
An excerpt weighted towards active compounds, which were near 4.2% of everything screened.
MC4R barr agon – activates human MC4R beta-arrestin recruitment; 360,000 tested, 0.98% active; U2OS MC4R beta-arrestin complementation, luminescence; percent of melanotan II response, DMSO zero; P32245; AID 540308; activation, % at 8.9 µM;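 active = activation above a per-plate cutoff, the mean activation of sample wells on that plate plus 3 SD, cut at about 8% in these data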
MC4R antag cAMP – blocks human MC4R cAMP signaling; P32245; MC4R-expressing cells, MTII-stimulated cAMP, LANCE TR-FRET; inhibition, % at 6.5 µM; 360,000 tested, 0.48% active; AID 540295;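 active = inhibition above its plate's cutoff, the mean of tested wells on that plate plus 3 SD, cut at about 29% in these data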;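 note: 0% = Melanotan II alone and 100% = Melanotan II plus saturating MCL0020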
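Material: U2OS-MC4R stable cell line | Reagent: Melanotan II challenge after compound preincubation | Doses: One concentration, 6.5 µM nominal | Incubation: 30-min compound preincubation, 1-h Melanotan II challenge, 1-h detection, room temperature | Signal: TR-FRET cAMP assay | Replicates: One well per compound, no replicates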
NALP1 inh – inhibitors of NALP1 inflammasome in yeast. 280,000 tested, 0.61% active. S. cerevisiae NALP1/ASC/caspase-1 growth, X-gal OD620, 72 h. inhibition, % at 10 µM; in the data active = inhibition mostly above about 24%, no sharp cut-off; inactive = mostly below about 32%
ALR H2O2 inh – inhibitors of human ALR sulfhydryl oxidase, primary screen, biochemical, H2O2 detection, HRP-luminol luminescence, single point; FAD-linked sulfhydryl oxidase ALR (Homo sapiens), P55789; purified ALR, DTT oxidation; inhibition, % (concentration not given with the values); 290,000 compounds, 3.8% hits; AID 485317, 2010;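 active = mean and each replicate at 75% or more; inconclusive = only one of the two met; inactive = neither met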;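 note: stock transfer was 7.5 nL into about 7.5 µL; 0% = neutral wells and 100% = wells with inactivated enzyme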
UUG fidelity – modulators of start codon recognition fidelity in yeast; AID 602363; activity score, % at 18.7 µM; S. cerevisiae UUG-firefly luciferase reporter, luminescence/redox ratio; 0.13% of 350,000 active;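 active = replicate mean at a twofold rise or more, about +100% in these data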;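 note: firefly luciferase made from a UUG start codon reports start codon fidelity; reporter light over untreated wells divided by growth signal over untreated wells; some hits fall short of that in this replicate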
HDAC3 inh – human HDAC3 inhibition; O15379; recombinant HDAC3, fluorogenic peptide/trypsin coupled, fluorescence; inhibition, % at 8.3 µM; 320,000 tested, 0.15% active; AID 2718; in the data active = inhibition above about 26%, passing the limit was not always enough
* = called active by the depositor; nt = no result.

molecule,MC4R barr agon,MC4R antag cAMP,NALP1 inh,ALR H2O2 inh,UUG fidelity,HDAC3 inh
COc1ccc(-n2c(O)c(/C=C3\C=Nc4ccccc43)c(=O)[nH]c2=O)cc1,-2.6,-1.1,21.4,nt,1.9,nt
Cc1ccc(-n2c(O)c(/C=C3/C(c4ccccc4)=Nc4ccccc43)c(=O)[nH]c2=O)cc1,-0.7,-14.8,37.6,98.0*,nt,17.9
COc1ccc(NC(=O)Cn2c(=O)sc3ccccc32)c(OC)c1,0.1,2.2,39.4*,-5.5,-4.1,-2.9
Cc1nc2c(O)cccc2cc1CO,0.3,0.6,35.7*,-25.9,-11.0,-5.5
Cc1ccc(O)c(C(=O)CC(=O)c2ccccc2Cl)c1,4.0,-0.1,0.9,44.8,nt,2.9
Cc1ccc(O)c(C(=O)CC(=O)c2ccc(C(C)(C)C)cc2)c1,12.3*,1.5,-5.0,-11.0,-7.1,-1.3
C[C@@H]1CN([C@H](C)CO)C(=O)c2cc(/C=C/c3ccccc3)cnc2O[C@@H]1CN(C)Cc1cncnc1,nt,nt,nt,nt,-15.9,nt
CN(C)CC(=O)Nc1ccc2c(c1)[C@@H]1C[C@H](CC(=O)NCc3cccnc3)O[C@H](CO)[C@@H]1O2,nt,nt,nt,nt,-23.0,nt
N#CCC(=O)N/N=C/c1cn(Cc2ccc(Cl)c(Cl)c2)c2ccccc12,20.4*,-7.7,26.4,-0.2,-8.5,-5.5
O=C(O)c1ccc(N/N=C/c2cn(Cc3ccc(F)cc3)c3ccccc23)cc1,2.1,4.1,6.7,98.9*,-4.6,3.7
N#C/C(=C\c1cn(Cc2ccc(F)cc2)c2ccccc12)C(=O)NCc1ccco1,9.1*,4.8,10.5,6.2,-9.2,0.6
N#CCC(=O)N/N=C/c1cn(Cc2ccccc2C#N)c2ccccc12,1.7,11.3,1.5,-7.0,-10.4,-5.1
N#CCC(=O)N/N=C/c1cn(Cc2cccc3ccccc23)c2ccccc12,-1.0,9.6,41.3*,-2.9,-18.3,-6.1
COc1cccc(S(=O)(=O)N[C@H]2C=C[C@@H](CC(=O)NC3Cc4ccccc4C3)O[C@H]2CO)c1,nt,nt,nt,nt,6.9,nt
CCCc1nc(SCC(=O)c2ccc(F)cc2)c2ccccc2n1,1.4,8.5,4.9,98.9*,nt,33.2*
C/C(=N\NC(=O)CCc1ccc(S(=O)(=O)N2CCOCC2)cc1)c1ccccc1Cl,-1.1,2.2,-7.5,98.5*,1.0,5.7
C[C@H](CO)N1C[C@H](C)[C@@H](CN(C)CC2CCOCC2)Oc2ncc(C#Cc3ccncc3)cc2C1=O,nt,nt,nt,nt,-16.2,nt
CN1CCN/C1=C(/C(Cl)=C(Cl)Cl)[N+](=O)[O-],-3.2,35.5*,21.5,-0.3,nt,2.1
COc1ccc(Nc2cccc(Cl)c2)c(C(=O)O)c1,0.1,10.2,10.5,98.4*,-13.0,6.2
Cc1ccc(NC(=O)Nc2cccc(Cl)c2)c(C(=O)O)c1,-0.7,7.6,8.7,50.7,nt,-64.0

Grouped by structure: the compounds so far containing fluorine.
molecule,MC4R barr agon,MC4R antag cAMP,NALP1 inh,ALR H2O2 inh,UUG fidelity,HDAC3 inh
O=C(O)c1ccc(N/N=C/c2cn(Cc3ccc(F)cc3)c3ccccc23)cc1,2.1,4.1,6.7,98.9*,-4.6,3.7
N#C/C(=C\c1cn(Cc2ccc(F)cc2)c2ccccc12)C(=O)NCc1ccco1,9.1*,4.8,10.5,6.2,-9.2,0.6
CCCc1nc(SCC(=O)c2ccc(F)cc2)c2ccccc2n1,1.4,8.5,4.9,98.9*,nt,33.2*

The results go on.
molecule,MC4R barr agon,MC4R antag cAMP,NALP1 inh,ALR H2O2 inh,UUG fidelity,HDAC3 inh
Cc1ccc(S(=O)(=O)Nc2ccc3c(c2)C(=O)N([C@@H](C)CO)C[C@@H](C)[C@H](CN(C)S(=O)(=O)c2ccc(F)cc2)OCCCC[C@@H](C)O3)cc1,nt,nt,nt,nt,13.1,nt
O=C(c1ccccn1)N1CC[C@@H]2[C@@H](CO)Nc3ccc(-c4ccc(F)cc4)cc3[C@@H]21,nt,nt,nt,nt,14.0,nt
CC1CCC2C(C1)Nc1c(C(=O)O)cccc1C2(C)C (stereo not given),-1.0,26.8,14.6,98.4*,nt,-44.6
CC1C2CCC(C2)C1OC(=O)c1ccccc1C(=O)O (stereo not given),0.1,0.1,nt,nt,nt,nt
CN(Cc1ccno1)Cc1cn(Cc2ccccc2)nc1-c1ccc2c(c1)OCO2,-1.8,6.7,29.4*,nt,nt,2.3
Cc1ccc(NC(=O)CSc2nc(-c3ccco3)nc3cc(=O)[nH]n23)c(Cl)c1,-2.3,-8.4,2.8,98.9*,-9.0,1.8
Cc1ccc(NC(=O)CSc2n[nH]c(-c3ccco3)n2)c(C)c1,-2.4,10.0,6.0,50.7,nt,-3.6
Cc1[nH]nc2c1-c1nc3ccccc3nc1C(C)(C)C2,-0.8,1.3,-4.2,98.6*,nt,-1.5
COc1ccc(/C=N/Nc2ccccn2)c(OC)c1OC,-1.3,-3.5,-11.5,98.6*,nt,-0.7
C(/CCc1ccccc1)=N\Nc1nc2ccccc2[nH]1,-1.1,0.7,0.8,98.2*,nt,11.1
Cc1ccccc1/C=N/Nc1nc2ccccc2[nH]1,0.2,-12.1,2.5,72.9,nt,9.9
C(=N\Nc1nc2ccccc2[nH]1)/c1c[nH]c2ccccc12,-3.4,3.9,-12.6,99.3*,nt,8.5
Cc1cc(=O)[nH]c(N/N=C/c2c[nH]c3ccccc23)n1,-1.3,5.2,11.0,92.1*,nt,4.5
Cc1cc(=O)[nH]c(N/N=C/c2ccccc2C(F)(F)F)n1,-0.5,2.5,6.2,-2.7,nt,6.4
CC(=O)Nc1ccc2c(c1)C(=O)N(C)[C@H]1CC[C@H](CC(=O)NCc3ccc(F)cc3)O[C@H]1CO2,nt,nt,nt,nt,4.6,nt
C[C@H]1CCCCO[C@H](CN(C)Cc2ccncc2)[C@@H](C)CN([C@@H](C)CO)C(=O)c2cc(NC(=O)Nc3cccc4ccccc34)ccc2O1,nt,nt,nt,nt,8.1,nt
CCCNC(=O)C[C@@H]1CC[C@@H]2[C@@H](COc3ccc(NC(=O)c4cccc(F)c4)cc3C(=O)N2C)O1,nt,nt,nt,nt,-4.8,nt
C(=N\Nc1nc2ccccc2[nH]1)/c1ccccc1,1.2,1.7,-5.6,nt,-17.5,4.9
COc1ccc(/C=N/Nc2nc3ccccc3[nH]2)c(OC)c1OC,1.1,7.5,-5.5,98.5*,nt,4.9
O=S(=O)(N[C@@H]1CC[C@@H](CCn2cc(C3CC3)nn2)O[C@H]1CO)c1ccc(Cl)cc1,nt,nt,nt,nt,11.2,nt

Marked active in HDAC3 inh (from the list above):
molecule,MC4R barr agon,MC4R antag cAMP,NALP1 inh,ALR H2O2 inh,UUG fidelity,HDAC3 inh
CCCc1nc(SCC(=O)c2ccc(F)cc2)c2ccccc2n1,1.4,8.5,4.9,98.9*,nt,33.2*

Remaining list, next part:
molecule,MC4R barr agon,MC4R antag cAMP,NALP1 inh,ALR H2O2 inh,UUG fidelity,HDAC3 inh
O=C(Nc1ccc(C(F)(F)F)cc1)N[C@H]1CC[C@H](CCn2cc(C3(O)CCCC3)nn2)O[C@H]1CO,nt,nt,nt,nt,-9.7,nt
CC1(C)CN(c2ccccc2)N(C(=O)c2ccc(F)cc2)C1=O,-2.0,1.0,0.5,100.1*,-13.6,13.9
CC(=O)OCC1(C)CN(c2ccccc2)N(C(=O)c2ccc(C(C)(C)C)cc2)C1=O (stereo not given),2.0,24.8,24.4,nt,nt,nt
CC1(C)CN(c2ccccc2)N(C(=O)c2ccc(C#N)cc2)C1=O,-1.7,1.8,-11.8,84.7*,-8.6,5.7
Cc1ccc(-c2ccc(=O)n(CC(=O)N3CCN(c4cccc(C)c4)C(C)C3)n2)cc1 (stereo not given),7.0,16.9,40.8,22.9,-3.7,6.4
Cc1ccc(-c2ccc(=O)n(CC(=O)N3CCN(c4cc(Cl)ccc4C)CC3)n2)cc1,8.5*,10.8,-13.3,-1.2,-0.1,0.1
CO[C@@H]1CN(C)C(=O)c2cc(NC(=O)c3ccc4c(c3)OCO4)ccc2OC[C@H](C)NC[C@H]1C,nt,nt,nt,nt,-5.2,nt
COc1cc(OC)cc(C(=O)N2CCCC(Nc3ccc(F)cc3)C2)c1 (stereo not given),-1.4,1.7,0.1,98.8*,-13.4,-6.7
C=CCOc1cccc(C(=O)N2CCCC(Nc3ccc(F)cc3)C2)c1 (stereo not given),1.1,5.9,18.0,59.1,1.7,-1.1
